Tested on: H. pylori binding to HuTu-80 cell monolayer
Assay: H. pylori binding inhibition to HuTu-80 cell monolayers (microtiter, urease readout)
Type: cell-based, human (HuTu-80); H. pylori
Protocol: Cell cultures, to test for the effectiveness of H. pylori binding inhibition were prepared from human carcinomas stomach cancer epithelial cells HuTu-80 obtained from the American Type Culture Collection Rockville, Md., according to a modified procedure from that reported in Fauchere et al Microbial Pathogenesis 1990;9 427-439. The cultures were maintained in Basal medium Eagle containing 10% fetal calf serum in T-75 flasks, at 37° C. and a 5% CO2 atmosphere. Cells were harvested by trypsin/EDTA release and plated on 96-well flat bottom microtiter plates. The microtiter plates were incubated for 2-3 days until the monolayers grew to confluence. Prior to binding inhibition tests, the monolayer was washed with Hanks Balanced Salt solution (HBSS) containing Ca^+2 and Mg^+2, 0.1% BSA, 50 mM HEPES, 0.01 phenol red or HBHPR.
H. pylori bacteria isolates were obtained from B. Marshall (from the University of Virginia) and grown on sheep blood agar, collected at 48 h, washed and suspended in a binding buffer of HBSS+0.1% bovine serum albumin+50 mM HEPES buffer+0.01% phenol red or HBHPR.
In order to test for H. pylori binding inhibition, the concentration of H. pylori which bound to the monolayer was assigned an intermediate OD595 (optical density at 595 nm) (about 0.4 OD units). The same concentration of bacteria and test compound were combined for 10 minutes, then transferred onto the monolayer. Binding was allowed to occur for 20 min at room temperature under mild agitation. The unbound bacteria was washed away with 1 wash of HBHPR, then 2 washes of the same buffer without HEPES buffer (HBPR).
The amount of bacterial adhesion to the monolayer was measured by incubating with 50 μl urea-phenol red (UPR) solution (0.2% urea, 0.03% phenol red in 0.85% NaCl). The presence of bound bacteria is indicated by the presence of bacterial urease which generates NH3, which raises the pH and changes the color to purple, near at OD595.
IC50 in mg/ml was determined for each compound tested. The test data is reported below in Table 1:
IC50 S were determined using the HuTu-80 cell line monolayers. […]

## 3' sialyl lactose-HSA: complex of 3' sialyl lactose with HSA, with about 20 molecules of 3' sialyl lactose bound to the HSA
HuTu-80 monolayers, H. pylori binding inhibition, Table 1
  IC50: 20 µM
HuTu-80 monolayers, relative to 3' sialyl lactose
  Molar activity (relative to 3' sialyl lactose): 3.45 × 10^-3
Multivalent form vs monovalent
  times more effective on a molar basis than 3' sialyl lactose: 290 times

— patent US5883079A, “Method for inhibiting H. pylori infection in mammalian tissue” (Neose Technologies, Inc., priority 1998, dated 1999)
